Test results reported in paper PMC11588046 (Proceedings of the National Academy of Sciences of the …, 2024).

Target: T1, ACVR1 (ALK2) (Homo sapiens, UniProt Q04771)
T1 sequence (Q04771 21-509): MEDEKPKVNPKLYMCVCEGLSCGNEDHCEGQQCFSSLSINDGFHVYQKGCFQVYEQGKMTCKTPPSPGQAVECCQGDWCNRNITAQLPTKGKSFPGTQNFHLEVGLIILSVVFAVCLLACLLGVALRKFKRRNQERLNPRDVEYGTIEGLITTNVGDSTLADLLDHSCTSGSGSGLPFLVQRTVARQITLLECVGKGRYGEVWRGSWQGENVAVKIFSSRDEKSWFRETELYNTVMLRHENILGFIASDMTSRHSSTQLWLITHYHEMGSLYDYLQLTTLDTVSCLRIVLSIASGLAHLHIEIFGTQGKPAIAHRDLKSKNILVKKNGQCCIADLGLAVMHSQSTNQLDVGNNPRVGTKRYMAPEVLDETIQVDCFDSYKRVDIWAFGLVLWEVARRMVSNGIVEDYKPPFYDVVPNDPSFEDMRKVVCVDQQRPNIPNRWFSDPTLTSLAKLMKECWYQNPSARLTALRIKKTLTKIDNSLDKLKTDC
Format: binding

## CNC(=O)CCCn1c(-c2cc(OC)c(OC)c(OC)c2)nc2ccc(C(=O)NCCCN3CCN(c4ccccc4)CC3)cc21 [CDD-2316]
  decrease in ALK2 potency relative to parent compound: more than 50 fold
